Results published in PMC4126848 (Epilepsia, 2014).
Where two headings read alike, the source gives them in different places.

Protein sequences, listed by entry. Tags and fused reporters are not part of them.
UniProt P04775, whole entry G879Q/A880Q/L881Q: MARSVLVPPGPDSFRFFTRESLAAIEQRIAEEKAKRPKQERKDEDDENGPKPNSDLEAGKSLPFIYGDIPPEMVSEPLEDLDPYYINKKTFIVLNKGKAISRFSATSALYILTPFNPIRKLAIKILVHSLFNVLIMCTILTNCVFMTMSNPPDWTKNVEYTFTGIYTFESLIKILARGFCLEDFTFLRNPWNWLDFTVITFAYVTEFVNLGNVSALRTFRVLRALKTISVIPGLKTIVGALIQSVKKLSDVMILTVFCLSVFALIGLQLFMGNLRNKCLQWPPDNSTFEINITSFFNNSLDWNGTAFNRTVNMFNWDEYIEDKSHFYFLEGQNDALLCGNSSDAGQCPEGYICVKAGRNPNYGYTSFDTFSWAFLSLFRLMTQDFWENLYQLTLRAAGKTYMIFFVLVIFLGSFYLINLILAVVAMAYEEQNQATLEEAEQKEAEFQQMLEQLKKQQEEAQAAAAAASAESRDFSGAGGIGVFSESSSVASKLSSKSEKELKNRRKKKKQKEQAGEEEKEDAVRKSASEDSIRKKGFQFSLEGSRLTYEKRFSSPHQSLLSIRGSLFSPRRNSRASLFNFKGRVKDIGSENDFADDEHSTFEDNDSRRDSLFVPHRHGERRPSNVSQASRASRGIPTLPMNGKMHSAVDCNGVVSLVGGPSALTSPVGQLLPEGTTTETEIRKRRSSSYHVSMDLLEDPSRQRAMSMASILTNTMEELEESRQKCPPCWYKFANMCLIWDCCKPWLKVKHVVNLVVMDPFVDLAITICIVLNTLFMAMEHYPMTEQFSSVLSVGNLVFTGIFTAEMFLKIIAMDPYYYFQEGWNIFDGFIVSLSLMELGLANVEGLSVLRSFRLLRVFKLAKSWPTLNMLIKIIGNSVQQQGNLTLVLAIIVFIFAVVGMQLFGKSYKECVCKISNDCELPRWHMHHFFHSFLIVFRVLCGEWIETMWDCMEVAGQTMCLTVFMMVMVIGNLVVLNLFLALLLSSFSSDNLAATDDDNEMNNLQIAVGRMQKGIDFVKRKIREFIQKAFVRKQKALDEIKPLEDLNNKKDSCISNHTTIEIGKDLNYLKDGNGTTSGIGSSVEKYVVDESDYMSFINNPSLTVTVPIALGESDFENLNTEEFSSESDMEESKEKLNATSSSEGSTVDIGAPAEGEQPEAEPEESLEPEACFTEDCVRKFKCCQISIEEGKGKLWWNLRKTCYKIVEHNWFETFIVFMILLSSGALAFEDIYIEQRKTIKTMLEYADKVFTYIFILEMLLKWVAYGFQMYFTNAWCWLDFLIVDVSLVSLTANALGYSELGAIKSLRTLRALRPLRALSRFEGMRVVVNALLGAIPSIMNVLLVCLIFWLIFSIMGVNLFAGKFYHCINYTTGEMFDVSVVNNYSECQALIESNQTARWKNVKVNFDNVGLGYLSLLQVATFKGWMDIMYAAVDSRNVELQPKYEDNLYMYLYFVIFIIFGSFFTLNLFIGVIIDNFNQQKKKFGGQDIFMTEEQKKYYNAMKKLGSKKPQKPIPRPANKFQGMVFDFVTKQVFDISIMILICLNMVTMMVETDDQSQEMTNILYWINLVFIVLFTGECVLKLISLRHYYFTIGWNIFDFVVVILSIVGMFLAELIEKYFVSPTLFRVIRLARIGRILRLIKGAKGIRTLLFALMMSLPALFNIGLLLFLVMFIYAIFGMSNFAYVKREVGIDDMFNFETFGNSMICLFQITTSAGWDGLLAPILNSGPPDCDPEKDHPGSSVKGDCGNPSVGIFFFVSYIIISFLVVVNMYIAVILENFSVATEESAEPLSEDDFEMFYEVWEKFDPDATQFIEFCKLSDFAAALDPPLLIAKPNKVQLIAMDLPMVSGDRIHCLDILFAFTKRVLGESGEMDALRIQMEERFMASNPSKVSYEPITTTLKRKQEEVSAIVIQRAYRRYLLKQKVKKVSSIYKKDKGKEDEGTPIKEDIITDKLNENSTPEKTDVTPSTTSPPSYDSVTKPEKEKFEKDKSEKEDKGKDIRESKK

Biological target: rat NaV1.2-GAL879-881QQQ (Rattus norvegicus, UniProt P04775, A880Q/G879Q/L881Q)
Test: Whole-cell voltage clamp of tsA201 cells expressing mutant NaV1.2
Settings: for preference for persistent current block over peak current block: ratio of IC50 values; for inhibition at 10 µM: tsA201, read-out: steady-state use-dependent inhibition of transient sodium current, 10 µM phenytoin

Compound	effect on voltage dependence of activation and steady-state inactivation (1 µM)	steady-state use-dependent inhibition of transient sodium current (1 µM GS967, 10 – 100 Hz)	preference for persistent current block over peak current block	inhibition at 10 µM (high stimulation frequencies)	inhibition at 10 µM (low frequency stimulation)
FC(F)(F)Oc1ccc(-c2ccc3nnc(C(F)(F)F)n3c2)cc1 [GS967]	small hyperpolarized shifts	minimal steady-state use-dependent inhibition	42 fold		
O=C1NC(=O)C(c2ccccc2)(c2ccccc2)N1 [Phenytoin, reference compound]			9 fold	44.2 ± 3.7%	22.6 ± 2.8%
